Data taken from US20180280393A1, “METHODS AND COMPOSITIONS FOR TREATMENT OF METASTATIC AND REFRACTORY CANCERS AND TUMORS” (The Wistar Institute of Anatomy and Biology, priority 2015, published 2018).

Tested on: human T cells
Test: Cytokine rescue of human T cell proliferation from MEK inhibition
Format: cell-based
Conditions: GDC0973 or trametinib
Protocol: FIG. 2A is a graph showing that IL-15 can rescue T cell functions from MEK inhibitors. A proliferation of human PBMCs activated with ConA+/−IL-2 (20 U/ml) and IL-7 (2 ng/ml) was quantified with the division index and plotted as percent of the corresponding vehicle treatment for each group. Averages from 3 independent experiments. *=P<0.05 t-test vs ConA only.
Proliferation of CD8 T cells after 7 days is shown.
FIG. 2D is a graph showing that human PBMCs were activated as in FIG. 2B with the indicated compounds, BKM120=2 μM. Division index of CD8 T cells as percent of vehicle alone is shown as means from 3 different donors. *=P<0.05 compared to trametinib 5000 nM, #=P<0.05 compared to trametinib 5000 nM+IL-15.
FIG. 10 is a table that illustrates that IL-15, IL-2, and IL-7 can rescue T cell proliferation from MEK inhibition. […]
T cell stimulation—For human T cell proliferation assays, peripheral blood lymphocytes were obtained by leukapheresis/elutriation and Miltenyi bead-purified and K562 cells expressing human CD32 were generated as previously described^41. […] Proliferation of stimulated T cells was determined 7 days later by FACS and Division Index was calculated using FlowJo software.

IL-2: recombinant human IL-2 (Peprotech)
rescue of T cell proliferation in the presence of the MEK inhibitors: able to rescue T cell proliferation
